Data reported in PMC3972757.

Columns and labels:
UIM-SH3 of STAM2 = assay: ITC
SH3 domain of STAM2 = SH3 domain of STAM2 (UniProt O75886); assay: ITC

Row | Substance | Kd (UIM-SH3 of STAM2) [µM] | dH (SH3 domain of STAM2) [kcal/mol]
1 | Lys63-linked diubiquitin (from UniProt P0CG47 1-76) | 54 | 
2 | ubiquitin (from UniProt P0CG47 1-76) (natural protein) |  | -4.1
